Measurements reported in US4709079A, “Polyprenyl compounds, process for the production thereof and medicines containing same” (priority 1981, dated 1987).

Legend:
[1] = tested on: cold restraint stress-induced ulcer, gastric membranes; experiment: worsening of cold restraint stress-induced ulcer; type: in vivo, Wistar rats; conditions: peroral, two hours after application of stress
Procedure: Cold restraint stress was applied to Wistar rats (7 weeks old) by a conventional method. 0.5 ml/100 g (body weight) of compound C or Indomethacin (suspended in 5% acacia syrup containing 3.6% Tween 80) was administered perorally to the rats. Two hours after the application of stress, the length of ulcer (ulcer index) in the gastric membranes was measured.

[2] = tested on: adjuvant-induced arthritis; experiment: adjuvant-induced arthritis controlling test; design: species or system F-344 rats; conditions: rat, in vivo, po
Procedure: Arthritis was induced in F-344 rates (6 weeks) (Japanese Charles Liver) according to the method of Winder, C. V., et al; Arthritis Rheum. 12, 472-482 (1969) and the controlling effects were examined. 0.05 ml. of a suspension (6 mg/ml) of Mycobacterium butyricum (Difco) in liquid paraffin was in]ected in the sole of the right leg of each rat to induce arthritis. As test compounds, Compound C and Indomethacin (control) were used. The former was dissolved in sesame oil and the latter was suspended in acacia. The administration of the test compounds was started on the same day as the adjuvant injection. The test compounds were administered perorally every day for 19 days.

gastric membranes = experiment: effects on gastric membranes of normal rats (ulceration); type: in vivo, Wistar ST rats; conditions: dose 153 mg/kg, peroral, 4 hours, fasted normal rats
Procedure: After the rats fasted for 24 hours, 0.5 ml./100 g (body weight)(suspension in 5 wt. % acacia syrup containing 3.6 wt. % Tween 80) of compound C and Indomethacin were administered perorally to Wistar ST rats (7 weeks old). Four hours thereafter, the ulceration conditions in the gastric membranes were examined.

in vivo = conditions: rat, po, peroral, 20% solution in sesame oil
[3] = tested on: carrageenan-induced edema; experiment: carrageenan-induced edema controlling test, sole edema method (Experiments 1 and 2); design: species or system male S.D. rats; conditions: rat, in vivo, po
Procedure: Effects of controlling carrageenan-induced edema were examined by the sole edema method, see Winter et al.; Pro. Soc. Exp. Biol. Med., 111, 544 (1962), wherein carrageenan was used as an inflaming agent and male S.D. rats weighing 150-180 g were used as the test animals (each group comprised 5 rats).
As the test compounds, Compound C, Indomethacin and Ibuprofen were used. The test compound was dissolved in sesame oil and the solution was administered perorally to the rats 6 hours before the administration of the inflaming agent. The volumes of the hind leg soles were measured 3 hours after the administration of the inflaming agent. Edema rate was calculated according to the following formula (1) and the edema control rate was calculated according to the following formula (2). The median effective dose (ED50) in the carrageenan-induced edema method was calculated from the frequency of cases in which significant edema control was observed (the number of rats having an edema control rate of at least 30%) in each group according to the Litchfield-Wilcoxon method. [formula] wherein a is the volume of the hind leg sole before the edema induction and b is the corresponding value after the edema induction. […]
Carrageenan-induced edema control rates were determined according to formula (2) in the same manner as in Experiment 1 except that each group comprised 8 rats.

COc1ccc2c(c1)c(CC(=O)OCC=C(C)CCC=C(C)CCC=C(C)C)c(C)n2C(=O)c1ccc(Cl)cc1 [Compound C, 1-(p-Chlorobenzoyl)-2-methyl-5-methoxy-3-indolylacetic acid 3,7,11-trimethyl-2,6,10-dodecatrienyl ester]
Ulcer index (Mean ± S.E.), length of ulcer ([1]; dose 30.6 mg/kg): 5.6 ± 2.2 | Ulcer index (Mean ± S.E.), length of ulcer ([1]; dose 153.0 mg/kg): 4.9 ± 1.8 | LD50/ED50 ratio in the adjuvant-induced arthritis test [2]: 410-560 | Ulcer index (mean ± S.E.) (gastric membranes): 0.0 ± 0.0 | LD50 (in vivo; female SD rats, read-out: LD50 female): 2000 to 2520 mg/kg | LD50 (in vivo; male SD rats, read-out: LD50 male): 1290 to 1860 mg/kg | LD50/ED50 ratio in the carrageenan-induced edema controlling test [3]: 160-230

Read-outs that look alike come from different tables or passages of the source.
